The test system of this assay is RPS19-deficient murine erythroid progenitor cells. In words: Phenotypic assay for rescued cell proliferation of murine RPS19-deficient erythroid progenitor cells. It counts as cell-based. As to conditions: Mus musculus, proliferation rescue of RPS19-deficient erythroid progenitor cells. An excerpt: Correction of reduced proliferative capacity of RPS19-deficient erythroid progenitors was used as readout in a phenotypic screen for novel drug candidates.

Each structure is given as a SMILES string. pEC50: −log10 of the molar value.

For `CN1CCN(C(=O)c2ccc3cc(CCNc4ncnc5ccc(C#N)cc45)ccc3c2)CC1` [DBA-9], the pEC50 – broadly, the EC50 on a negative log10 scale, so that one unit is a factor of ten – was 7.30.

The values above are taken from patent US11471446B2, “Compounds for treatment of hypoproliferative disorders” (LU LICENSE AB, priority 2015, dated 2022).
